For data set [1] the following is noted: cited from earlier work.
Data set [2] in a line: Permanent wave evaluation of waving lotions on hair tresses (waving efficiency). The conditions noted are these: amine 0.75M with 13.2 wt. % (0.8M) GMT, pH 7.5; 37° C. for 20 minutes. The text has this:
The pH was adjusted using a 10 wt. % HCl solution. Tresses were rolled onto mandrels and evaluated using the permanent wave evaluation procedure that follows. Procedure for Permanent Wave Evaluation […] 1. A bundle of 16 inch long medium virgin brown hair was secured with beeswax by dipping approximately 2 inches of the root end of the bundled hair into melted wax for 5 seconds. When the wax is cool to the touch, it is shaped into a square and allowed to harden. 2. Hair is broken into smaller bundles, washed with a 10 wt. % sodium lauryl sulfate solution and then rinsed. 3. Hair is sectioned into tresses of 45 hairs and the waxed end is re-waxed to further secure the tress. The wax is allowed to dry, and a piece of tape is wrapped around it to provide a writing surface. […] 4. An 8 cm long, 1.25 cm diameter spiral rod with 25 turns is used. The waxed end of the hair is secured between the 9th and 10th turns using a rubber band. […] 5. A piece of tape, width 2.5 cm, is wrapped sideways around the bottom edge of the hair, covering the bottom 2.5 cm. […] Waving Efficiency After the procedure, the lengths of the tresses were measured in a water bath. […] The curl is measured from the end of the wax to the end of the curl. [formula] where Li=initial length of tress from wax end to tip Lo=length of tress when wrapped on the rod Lt=length of permed hair from wax end to tip, measured in the water

Take `NC(CO)(CO)CO` [Tris, tris(hydroxymethyl)amino methane]: in data set [1], the pKa result is “about 8.06”. Also, the “Percent Waving Efficiency” value in data set [2] is 47.0%.
